Source: patent US11608330B2, “Methylamine derivatives as lysysl oxidase inhibitors for the treatment of cancer” (The Institute of Cancer Research: Royal Cancer Hospital, priority 2016, dated 2023)

Conditions: female, mouse, in vivo, 50 mg/kg

| Structure (SMILES) | T1/2 (po) |
| --- | --- |
| NCc1ncc(S(=O)(=O)c2cc(C(=O)O)cc(-c3ccccc3)c2)s1 | 2.3e+06 µM·h |
| Cc1ccc(-c2cc(S(=O)(=O)c3ccc(CN)s3)ccc2S(C)(=O)=O)cc1 | 1e+06 µM·h |
